# Yeast mating assay 2: variants of the scFv Ab-91

Source: Engelhart et al. 2022 (doi:10.1038/s41597-022-01779-4), MIT Lincoln Laboratory and A-Alpha Bio; data file from the FLAb repository.

All variants were tested on one target, the spike HR2 peptide PDVDLGDISGINAS (SARS-CoV-2).

The variants keep the light chain, the linker and the frameworks of Ab-91 (scFv order VL, three GGGGS repeats, VH).
VL: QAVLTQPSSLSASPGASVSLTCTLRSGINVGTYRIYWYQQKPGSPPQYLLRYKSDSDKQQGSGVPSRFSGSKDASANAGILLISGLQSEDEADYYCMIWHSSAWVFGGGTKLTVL
VH: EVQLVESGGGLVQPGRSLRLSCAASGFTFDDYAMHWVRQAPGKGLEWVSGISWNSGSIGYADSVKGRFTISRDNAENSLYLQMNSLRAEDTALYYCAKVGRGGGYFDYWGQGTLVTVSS

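The starting antibody came from a phage panning campaign against this peptide. Variants in AAYL51 differ from the parent at up to three CDR positions; double and triple changes were sampled at random. In AlphaSeq, yeast of one mating type display the scFv and yeast of the other type display the target. The frequency of each diploid, read from paired DNA barcodes, reflects how well the two displayed proteins bind. The ratio of observed to expected reads was calibrated, replicate by replicate, on BCL2-family standards whose Kd was known from biolayer interferometry. Each pool was mated in three replicate cultures.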

Changes read parent residue, position, new residue, counted from the first residue of the VH shown. Numbers give log10(Kd / nM), so 0 is 1 nM and 3 is 1 µM. Smaller is tighter. A mean of the replicates is given; it leaves out those without a signal. A pair that was not seen in that replicate is written "ND"; this usually means weak binding, but a binder can also be missed. Nonspecific signal, from three strains lacking the peptide, appeared in 21% of pairings of library AAYL51, centred on 4.54 (5% of these signals below 3.26); values are not corrected for it. Also given: how often the same scFv was detected with the empty control strains, with their mean in brackets. Parent in this assay: reference entry 1.86, copy in this library 0.88.

changes	log10 Kd, replicates	mean, log10 nM	signal with controls
G26Q/F29K/A61I	ND ND ND	ND	0/9
G26R/S55L/V99T	5.82 ND ND	5.82	3/9 (4.29)
T28G/S55P/D62V	4.89 ND 5.19	5.04	2/9 (3.91)
G56P/G100W/Y108A	ND ND ND	ND	0/9
D30Y/K65L/Y108P	3.66 ND ND	3.66	0/9
F29H/D30E/S52V	ND ND ND	ND	2/9 (3.66)
I51V/S55A/A61M	4.71 4.61 ND	4.66	4/9 (4.41)
A33E/A61Q/S63A	5.51 ND ND	5.51	4/9 (4.37)
F29E/A33N/G50W	ND ND ND	ND	0/9
G26W/M34T/G50L	ND ND ND	ND	2/9 (4.38)
A61P/G104C/Y108D	5.69 ND ND	5.69	3/9 (5.65)
M34R/Y60I/Y105Q	ND ND ND	ND	1/9 (3.80)
I51G/V64M/G103V	5.16 ND ND	5.16	0/9
V99K/G102V/D107C	ND ND ND	ND	0/9
A33D/G56L/G100S	ND 3.27 ND	3.27	0/9
I58Y/G102P/G104W	ND ND ND	ND	4/9 (4.62)
W53T/G100W/G104T	ND ND ND	ND	0/9
F29I/Y60I/A61V	ND ND ND	ND	0/9
S57G/A61I/V64L	4.05 ND ND	4.05	4/9 (3.97)
N54V/R101F/D107N	3.53 ND ND	3.53	2/9 (3.61)
S55H/A61E/D107L	4.10 ND ND	4.10	1/9 (4.19)
A33W/I58Q/K65S	ND ND ND	ND	1/9 (3.94)
F27N/S57H/Y60P	ND 3.68 ND	3.68	2/9 (3.45)
W53R/D62L/V64F	2.95 3.04 3.51	3.17	3/9 (4.05)
A33S/M34F	1.24 1.28 0.62	1.05	0/9
T28D/W53G/D62K	ND ND 2.19	2.19	1/9 (3.01)
I51S/S63F/K65Y	ND ND ND	ND	0/9
S52H/I58W/G103V	5.25 ND ND	5.25	3/9 (4.52)
G26D/H35Q/V99A	1.17 1.26 0.74	1.06	0/9
G50W/S57G/Y105P	4.76 ND 4.58	4.67	1/9 (4.39)
F27W/F29E/G104W	ND ND ND	ND	0/9
F29W/D62I/V64Q	ND ND ND	ND	1/9 (4.00)
D30H/S57F/D62F	4.24 3.90 4.07	4.07	2/9 (4.41)
D30K/S55P/S63G	3.42 4.23 4.02	3.89	1/9 (4.02)
G50R/R101L	5.98 3.72 ND	4.85	1/9 (4.47)
S52P/S63H/G104A	3.50 ND ND	3.50	1/9 (4.09)
A33M/I58L/Y105T	5.36 5.90 ND	5.63	3/9 (4.67)
Y32R/M34Y/N54V	6.61 6.76 5.73	6.37	5/9 (4.53)

The last 4 entries again:

changes,"log10 Kd, replicates","mean, log10 nM",signal with controls
G50R/R101L,5.98 3.72 ND,4.85,1/9 (4.47)
S52P/S63H/G104A,3.50 ND ND,3.50,1/9 (4.09)
A33M/I58L/Y105T,5.36 5.90 ND,5.63,3/9 (4.67)
Y32R/M34Y/N54V,6.61 6.76 5.73,6.37,5/9 (4.53)